This passage reports IC50 results from patent US8748411B2, “Antineoplastic compounds and pharmaceutical compositions thereof” (Centro de Ingenieria Genetica y Biotechnologia, priority 2005, dated 2014).

The test system of this test is CK2 optimized consensus substrate sequence RRREEETEEE
Put plainly: In vitro CK2 phosphorylation of the optimized consensus substrate peptide […], filter radioactivity. In kind it is biochemical. To be noted: read-out: Inhibitory concentration 50 (IC50); substrate peptide preincubated 1 h at 37° C.; reaction 10 minutes at 37° C., 100 μM ATP.

Regarding `NNC(=O)NP(=O)(NC(=O)NN)NC(=O)NN`, the IC50 was 73 nM.
